TDP1 inh: blocks human tyrosyl-DNA phosphodiesterase 1; recombinant TDP1, AlphaScreen DNA substrate cleavage; Potency, µM (doses to about 130 µM), for the others: top-dose activity change, negative = inhibition, most hits filed as inhibitors; 350,000 tested, 0.28% active; further: potency means the concentration at half of the fitted maximal effect; on the % scale 0 is the no-effect control and ±100 the full control effect; nearly all actives have a fitted effect of over 40% in size
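Here, a 5' biotin and 3' phosphotyrosine-FITC DNA oligonucleotide reports Tdp1 activity: intact substrate bridges AlphaScreen beads, while cleavage leaves a 3' phosphate and drops signal. All incubations at room temperature.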
uPA generation: cell surface uPA generation inhibition; cell surface uPA generation assay, qHTS; Potency, µM (top dose mostly 38.3 µM), for inactives: top-dose activity change, negative = inhibition, hits mostly inhibitors; 330,000 tested, 0.31% active; active means well fitted inhibition curve with a large enough effect; inconclusive means small, poorly fitted or top-dose-only effect; inactive means no such curve, though single readings can be large or run the other way; tested in mouse RAW 264.7 cells; further: potency means the concentration at half of the fitted maximal effect; on the % scale 0 is the no-effect control and ±100 the full control effect; nearly all actives have a fitted effect of over 55% in size
TDP1 cell CPT: growth inhibition of DT40 Tdp1-/-;hTDP1 cells with camptothecin (screen for TDP1 inhibitors) | 420,000 tested, 12% active | chicken DT40 Tdp1-/-;hTDP1 cells + 20 nM CPT, ATP luminescence, 48 h | Potency, µM (highest dose often 46.2 µM), without a hit: at the top dose activity change, negative = growth inhibition, actives largely listed as inhibitors; further: potency means the concentration at half of the fitted maximal effect; on the % scale 0 is the no-effect control and ±100 the full control effect; nearly all actives have a fitted effect of over 55% in size
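Chicken DT40 Tdp1-/- cells stably complemented with human TDP1 were seeded at 400 cells/well in medium containing 20 nM camptothecin, exposed to pin-transferred compounds, and grown at 37 °C for at least 48 hr. Viability was read as ATP luminescence.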
DT40 TDP1 no CPT: qHTS for Inhibitors of human tyrosyl-DNA phosphodiesterase 1 (TDP1): qHTS in cells in absence of CPT. 420,000 tested, 15% active. Potency, µM (highest dose often 46.2 µM), for inactives: top-dose activity change, negative = growth inhibition, hits mostly inhibitors. DT40 Tdp1-/- hTDP1 cells, no CPT, ATP luminescence, 48 h; further: potency means the concentration at half of the fitted maximal effect; on the % scale 0 is the no-effect control and ±100 the full control effect; nearly all actives have a fitted effect of over 55% in size
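Compound effects on proliferation are scored in DT40 Tdp1-/-;hTDP1 cells in the absence of CPT. ATP levels (CellTiter-Glo luminescence) are recorded after a ≥48 hr, 37 °C incubation.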
miR-21 reporter: miR-21 reporter, rising signal | HeLa miR-21 FLuc reporter, luciferase, 48 h | Potency, µM (top dose mostly 38.3 µM), inactives show at the top dose reporter change, positive = more light | 340,000 tested, under 10 active | AID 2288; active = well fitted rising curve with a large enough effect; inconclusive = small, poorly fitted or top-dose-only effect; inactive = no such curve, though single readings can be large or run the other way;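 further: % of control where 0% means no effect; miR-21 action dims this reporter so a rising signal means less miR-21 action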
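Compounds were titrated across several concentrations (up to approximately 40 uM) and incubated 48 hours with HeLa miR-21-FLuc reporter cells (miR-21 target sequence downstream of FLuc, endogenous miR-21). Readout was firefly luciferase luminescence after lytic detection reagent.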
* marks the source's active call; other numbers are inactive results; ? = inconclusive; nt = not tested or not shown; [ ] = dose if it differs, or a comment. Most compounds without a hit are left out; they make up all but 16% or so of the library. Unless noted, the call rests on the fitted dose curve; in most records, active means well fitted curve in the direction sought with a large enough effect; inconclusive means small, poorly fitted or top-dose-only effect, or another doubt; inactive means no such curve, though single readings can be large; an effect the other way counts as inactive or inconclusive.

Under each structure – TDP1 inh, uPA generation, TDP1 cell CPT, DT40 TDP1 no CPT, miR-21 reporter
(1) C[C@@H]1CN([C@H](C)CO)C(=O)CCCn2nncc2CO[C@@H]1CN(C)C(=O)c1ccccc1
→ nt, nt, -22%, -2%, nt
(2) Fc1ccc(-c2nnn(Cc3ccc(F)cc3Cl)n2)cc1
→ nt, 10%, -2%, -18%, -40%
(3) CCN1C(=O)c2cccc3c(NC(=O)c4cccc(N5C(=O)CCC5=O)c4)ccc1c23
→ 0%, 1%, -21%, -25%, 8%
(4) CCOc1cc(C(=O)Nc2ccc3c4c(cccc24)C(=O)N3CC)cc(OCC)c1OCC
→ 6%, nt, ?, 23µM*, -5%
(5) O=C1C(Br)=C(c2ccccc2)C(c2ccccc2)=C1c1ccccc1
→ nt, -3%, 0.58µM*, 0.92µM*, nt
(6) CN(C)c1ccc(P(=O)(COc2ccc([N+](=O)[O-])cc2)c2ccc(N(C)C)cc2)cc1
→ 5%, -4%, ?, 21µM*, -1%
(7) O=[N+]([O-])c1ccc(OCCOCCOc2ccc([N+](=O)[O-])cc2)cc1
→ nt, 9%, 3%, -1%, 1%
(8) Clc1cc2nc(-c3cccnc3Cl)[nH]c2cc1Cl
→ nt, -6%, -17%, 27%, -76%
(9) CC(NCC1(N2CCOCC2)CCCCC1)C(=O)N1CCc2ccccc21 (stereo not drawn)
→ -3%, 1%, -15%, ?, -11%
(10) CC(Nc1ccccc1N1CCCCC1)C(=O)N1CCc2ccccc21 (stereo not drawn)
→ 7%, 2%, ?, 16µM*, 0%

5 entries out of the list, ordered by number of heavy atoms, smallest number first:
Under each structure – TDP1 inh, uPA generation, TDP1 cell CPT, DT40 TDP1 no CPT, miR-21 reporter
(8) Clc1cc2nc(-c3cccnc3Cl)[nH]c2cc1Cl
→ nt, -6%, -17%, 27%, -76%
(5) O=C1C(Br)=C(c2ccccc2)C(c2ccccc2)=C1c1ccccc1
→ nt, -3%, 0.58µM*, 0.92µM*, nt
(10) CC(Nc1ccccc1N1CCCCC1)C(=O)N1CCc2ccccc21 (stereo not drawn)
→ 7%, 2%, ?, 16µM*, 0%
(9) CC(NCC1(N2CCOCC2)CCCCC1)C(=O)N1CCc2ccccc21 (stereo not drawn)
→ -3%, 1%, -15%, ?, -11%
(3) CCN1C(=O)c2cccc3c(NC(=O)c4cccc(N5C(=O)CCC5=O)c4)ccc1c23
→ 0%, 1%, -21%, -25%, 8%

More compounds follow:
Under each structure – TDP1 inh, uPA generation, TDP1 cell CPT, DT40 TDP1 no CPT, miR-21 reporter
(11) CC(NC(c1ccccc1)c1ccccc1)C(=O)N1CCCc2ccccc21 (stereo not drawn)
→ -8%, 0%, 12µM*, 10µM*, 0%
(12) OC(COc1ccc(Cl)cc1)CSc1ccccn1 (stereo not drawn)
→ -3%, 4%, -18%, ?, -49%
(13) Cc1ccccc1CSc1nc2c(c(=O)[nH]1)CCCC2
→ 2%, nt, nt, nt, 1%
(14) COC(=O)c1ccc(CSc2nc3c(c(=O)[nH]2)CCC3)cc1
→ 6%, nt, ?, 21µM*, -1%
(15) Cc1oc(-c2ccccc2Cl)nc1CSc1nc2c(c(=O)[nH]1)CCCC2
→ 1%, -2%, 13µM*, 18µM*, 0%
(16) O=c1[nH]c(SCCc2ccccc2)nc2c1CCC2
→ nt, nt, ?, 7.3µM*, nt
(17) Cc1ccc(CSc2nc3c(c(=O)[nH]2)CCC3)cc1
→ 1%, 2%, -7%, -4%, -13%
(18) O=c1[nH]c(SCc2ccccc2Cl)nc2c1CCC2
→ 7%, 3%, ?, 29µM*, -7%
(19) Cc1nc(NC(=O)c2csc3ccccc23)sc1C
→ 6%, nt, ?, ?, -12%
(20) CCOc1ccccc1N1CCN(CC(=O)NC(C)c2ccccc2)CC1 (stereo not drawn)
→ 2%, -3%, 2%, -21%, 2%

Full records as entered above. Values in the order: TDP1 inh, uPA generation, TDP1 cell CPT, DT40 TDP1 no CPT, miR-21 reporter
`Cc1ccccc1CSc1nc2c(c(=O)[nH]1)CCCC2` in the list: 2%, nt, nt, nt, 1%
`O=c1[nH]c(SCCc2ccccc2)nc2c1CCC2` in the list: nt, nt, ?, 7.3µM*, nt

(list continues)
Under each structure – TDP1 inh, uPA generation, TDP1 cell CPT, DT40 TDP1 no CPT, miR-21 reporter
(21) CC(C)NC(=O)C(C)Oc1ccc(S(=O)(=O)NCc2ccc3c(c2)OCO3)cc1 (stereo not drawn)
→ nt, -1%, 8%, -15%, -1%
(22) CSc1ncccc1C(=O)OCc1nc2ccsc2c(=O)[nH]1
→ 3%, -9%, -23%, -18%, nt
(23) COc1cc2ccccc2cc1C(=O)OCc1nc2ccsc2c(=O)[nH]1
→ 1%, 2%, 5.8µM*, ?, nt
(24) O=C(OCc1nc2ccsc2c(=O)[nH]1)c1ccco1
→ 5%, -3%, -2%, -1%, nt
(25) Cc1ccc(C(=O)OCc2nc3ccsc3c(=O)[nH]2)o1
→ nt, -6%, -2%, -1%, nt
(26) COc1cc(SC)ccc1C(=O)OCc1nc2ccsc2c(=O)[nH]1
→ nt, 30%, 8.2µM*, 9.2µM*, nt
(27) Cc1cnc(C(=O)OCc2nc3ccsc3c(=O)[nH]2)cn1
→ 14µM*, 12%, -1%, 0%, nt
(28) O=C(NCC1CCCO1)c1ccc(NC(=O)C2C3C=CC(C3)C2C(=O)O)cc1 (stereo not drawn)
→ 1%, 2%, -4%, -1%, -2%
(29) O=C(Nc1ccccc1-c1nc2ccccc2[nH]1)c1ccc(N2C(=O)CCC2=O)cc1
→ 0%, -4%, ?, 9.2µM*, -2%
(30) CC1CCCCN1S(=O)(=O)c1ccc(C(=O)Nc2ccccc2-c2nc3ccccc3[nH]2)cc1 (stereo not drawn)
→ 3%, -3%, 21µM*, 15µM*, 0%
(31) O=C(Nc1ccc(-c2nc3ccccc3[nH]2)cc1)c1cccc(N2C(=O)CCC2=O)c1
→ 0%, 2%, ?, 12µM*, -19%
(32) Cc1cc2nc(-c3ccccc3)c(Cc3cccc(F)c3)n2c(C)c1Br
→ nt, nt, ?, 16µM*, nt
(33) Cc1cc2nc(-c3cccc(Br)c3)c(Cc3ccccc3)n2c(C)c1Br
→ nt, nt, 16µM*, ?, nt
(34) Cc1cc2nc(-c3ccc(C#N)cc3)c(Cc3cccc(F)c3)n2c(C)c1Br
→ nt, nt, 18µM*, 15µM*, nt
(35) Cc1cc2nc(C3CCCCC3)c(Cc3cccc(F)c3)n2c(C)c1Br
→ nt, nt, 16µM*, ?, nt
(36) CCOc1ccc(S(=O)(=O)NCCC(=O)NC(C)CCc2ccccc2)cc1 (stereo not drawn)
→ 0%, 6%, -26%, ?, nt
(37) Nc1nonc1C(=O)N1CCCCC1
→ 1%, -1%, 5%, -22%, 0%
(38) COc1ccccc1CNC(=O)CCC(=O)N1Cc2cccc(OC)c2Oc2ncccc21
→ 1%, -8%, 7%, -10%, 1%
(39) Cc1ccc(Cc2c(-c3cccc(Cl)c3)nc3cc(C)c(Br)c(C)n23)cc1
→ nt, nt, -43%, ?, nt
(40) COc1ccc(-c2nc3cc(C)c(Br)c(C)n3c2Cc2ccccc2C(F)(F)F)cc1OC
→ nt, nt, -29%, ?, nt
(41) Cc1cc(Br)cn2c(Cc3cccc(F)c3)c(-c3ccc(C#N)cc3)nc12
→ nt, nt, 18µM*, ?, nt
(42) Cc1ccc(-c2nc3cc(C)c(Br)c(C)n3c2Cc2cccc(F)c2)cc1
→ nt, nt, 7.3µM*, 10µM*, nt
(43) Cc1cc2nc(-c3ccc(F)cc3)c(Cc3ccccc3)n2c(C)c1Br
→ nt, nt, 21µM*, 21µM*, nt
(44) O=S(=O)(Nc1ccc(-c2cnco2)cc1)c1ccccc1
→ 7%, -10%, -1%, 2%, -13%
(45) CC(=O)c1sc(NC(=O)c2ccc(Cl)cc2)nc1C
→ -3%, -3%, -3%, -8%, -39%
(46) Cc1ccc(S(=O)(=O)N(CC(=O)Nc2cccnc2)c2cc(Cl)ccc2C)cc1
→ -2%[12.3 µM], nt, 16µM*, 18µM*, -4%
(47) COc1ccc(C(=O)NC(=S)Nc2ccc(Cc3ccncc3)cc2)cc1
→ 8%, -10%, ?, 18µM*, 20%
(48) CCOC(=O)c1ccccc1NC(=O)CN(c1ccccc1OCC)S(C)(=O)=O
→ -1%, 2%, ?, ?, -10%
(49) COc1ccc(OC)c(N(CC(=O)Nc2cccnc2)S(=O)(=O)c2ccc(OC)c(OC)c2)c1
→ 2%, 1%, ?, ?, 3%
(50) CCOC(=O)c1ccccc1NC(=O)CN(c1cccc(C)c1C)S(=O)(=O)c1ccccc1
→ nt, nt, 7.3µM*, 5.8µM*, -7%
(51) O=C(NCc1ccncc1)Nc1ccc(Cc2ccc(NC(=O)NCc3ccncc3)cc2)cc1
→ nt, nt, ?, 10µM*, nt
